## Binding of CDR-mutated scFvs to a peptide of the spike HR2 region

Values reported by Engelhart et al. 2022, doi:10.1038/s41597-022-01779-4 (FLAb copy).

Target peptide (SARS-CoV-2 spike, HR2 region): PDVDLGDISGINAS

Parent scFv Ab-91: VL joined to VH by three GGGGS repeats. Changes lie in the heavy chain CDRs alone.
VL: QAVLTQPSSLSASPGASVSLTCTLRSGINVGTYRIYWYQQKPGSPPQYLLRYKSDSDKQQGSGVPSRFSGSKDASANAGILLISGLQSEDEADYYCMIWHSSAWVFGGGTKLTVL
VH: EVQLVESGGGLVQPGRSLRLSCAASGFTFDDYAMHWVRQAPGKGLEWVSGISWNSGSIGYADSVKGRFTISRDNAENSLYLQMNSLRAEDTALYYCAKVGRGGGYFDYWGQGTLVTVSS

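Phage display of a naive human antibody library on the peptide gave the parent. The library (AAYL51) carries one to three amino acid substitutions per variant, with no insertions or deletions. Affinity was read by AlphaSeq, a pooled yeast mating assay with surface-displayed partners. Binding brings cells together so that they mate, and sequencing counts the barcode pairs among the diploids. The ratio of observed to expected reads was calibrated, replicate by replicate, on BCL2-family standards whose Kd was known from biolayer interferometry. There are three technical replicates.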

Each variant is given by its three heavy chain CDRs, as the data file delimits them; those of the parent are GFTFDDYAMH, GISWNSGSIGYADSVK, VGRGGGYFDY.
Values are log10 of the apparent Kd in nM; lower means stronger binding.
Averages over replicates are reported, and they cover detected replicates only.
An entry "no signal" has no value in the source: the pair was not observed among the diploids in any replicate. This suggests poor binding but is not conclusive.
Three control strains display no target. For library AAYL51, 21% of the pairings with them gave a signal, with a median of 4.54 and one signal in twenty below 3.26, so weak values seen in few replicates may be background.

CDR-H1,CDR-H2,CDR-H3,"log10 Kd (nM), mean",replicates with signal
GFAFDDYAMH,GISWNSGSIGYADSVK,RGRGGGYFDY,no signal,0/3
GFTFDDYAMH,GISWNSGSIQYADSVK,VGRGGTYPDY,no signal,0/3
GFTFDDYAMH,GISWNSGSIGCADSVT,VGRGMGYFDY,5.21,2/3
GFTFDDYAMH,GISWNSGSIGYADALK,VGRGGGYFDY,1.34,3/3
GFTFDNYAHH,GISWNSGSIGYADSVK,VGCGGGYFDY,no signal,0/3
GFTFDDYARH,GISWNSGSIGYADSVK,VKRGGGYFLY,4.71,1/3
GFTFDDYAMH,GISWNSGSIGGIDWVK,VGRGGGYFDY,no signal,0/3
EFTFDDYYMH,GISWNSGSIGYADSVK,VGRGGGYFDV,5.48,1/3
GFTFDDYGMH,MISWNSGSIGEADSVK,VGRGGGYFDY,no signal,0/3
GCTFDDYAMH,GISWNYGSIGYADSVK,VGRGGGLFDY,4.18,2/3
GFTFDPYAMH,GISWNSGEIGYADSVK,VGRGHGYFDY,no signal,0/3
GFTFDDYAMH,GISWSSGSHGYADSVK,VGRHGGYFDY,no signal,0/3
GFTFDDYAMH,GIDWNSVYIGYADSVK,VGRGGGYFDY,no signal,0/3
GFTFDDYAMH,GICWNSQSIGYFDSVK,VGRGGGYFDY,4.57,1/3
GFTFDDYAMH,GISWNSGSIGYADSVK,VTRLGCYFDY,4.51,2/3
GFTFDDYAMH,GISWNSGSHGYADSVK,VGRGGGGFDV,2.32,3/3
GFLFDDYAMH,GITWNSFSIGYADSVK,VGRGGGYFDY,5.17,3/3
GFTFDDYAMH,GIDWNSGSIGYADYVN,VGRGGGYFDY,3.87,3/3
GFTFDDYAMH,GISWNSGSMGYADSVK,VDRGGGWFDY,2.96,3/3
GFTFDDYAMH,GISWNSGSIGYANSVK,VGRVGWYFDY,4.21,2/3
GFTFDDWAMH,GISWNSSSIGYADSVK,VGRGGGMFDY,6.29,2/3
GFTFDPYAMH,GISWNSGSPGYADSVK,VGRGGFYFDY,4.77,1/3
GFTFDDYAMA,GISWNSGSIGYAYSVK,VGRFGGYFDY,no signal,0/3
GFTFDDYAMH,GISWNSGSIGYADSVK,KGRGGGYRFY,4.90,3/3
GFTFDDYKMH,GISWNSMSIGYADYVK,VGRGGGYFDY,4.64,1/3
GFDFDDYAMH,GISWNGGSIGYAMSVK,VGRGGGYFDY,4.58,3/3
GFTFDDYAMH,GISWNSNSIGYADSVE,RGRGGGYFDY,0.90,3/3
GFTFDDYAMH,GISWNTGSIGYADSVK,HGRGGGYFDG,3.17,3/3
GFRFDDYAMH,GISWNCGSIGYADSVK,VGRGGYYFDY,1.84,3/3
GFTGDDYAMH,GISWNSGSIGYADSVK,VGAGGGYFDY,no signal,0/3
GFTFWDYAMH,GISWNSGSIGYADSVK,YGRGGGYFDY,4.16,1/3
GFTFDDYAMH,GISWNSGSWGYADSVK,VRRGMGYFDY,no signal,0/3
GFTFDDYAMH,GISINSGSIGYAAQVK,VGRGGGYFDY,4.64,2/3
GFTSDDYAMH,GIVWNSGSIGYADSVK,VGQGGGYFDY,5.32,3/3
GFTFDDYAMH,GISWISGSIGYADSVK,VGRGGGAFDY,4.29,2/3
GFTFDDYAMH,GISWNSGSIGKCHSVK,VGRGGGYFDY,4.29,1/3

Second part, the sequence after the result:

"log10 Kd (nM), mean",replicates with signal,CDR-H1,CDR-H2,CDR-H3
3.87,2/3,GFTFDDYAMH,GISWSSRSIGYADQVK,VGRGGGYFDY
no signal,0/3,GFTFDDWAMH,GITWNSGSIGYADSVK,YGRGGGYFDY
3.79,2/3,GLTFDDYAMH,GISWNSCSIGYADSVK,VGRGGGYFDY
0.80,3/3,GFTFDDVAMH,GISWNSGSIGYADSVK,VGLGGGYFVY
no signal,0/3,GFTFDDYAMH,GISWNSGSIGAADSVK,VINGGGYFDY
no signal,0/3,GFTFDDYAMH,GISWNSGSIGYFDSVK,VGRYGGYPDY
no signal,0/3,GFTFDDDAMH,GISWNSGSISYADSVK,VGRGGTYFDY
2.91,1/3,GFTFDDLAMH,GISWNSGSIGYAFSAK,VGRGGGYFDY
4.24,2/3,GFTFDDYAMH,GISWNSGSIIYADEVK,QGRGGGYFDY
no signal,0/3,GFTFPDYWMH,GISWNSGSIGYADSVK,VGRGGEYFDY
3.13,3/3,GFTFDDYAMH,GISWNSGSIGYADSVL,VGRGGGYYDY
2.64,3/3,GFTFDDYAMH,GISWNSGSIGYASSVR,VGRGGGWFDY
4.80,2/3,KFTFDDEATH,GISWNSGSIGYADSVK,VGRGGGYFDY
5.93,1/3,GFTFDDYAMH,NISWNSGSIGYAESVK,VERGGGYFDY
no signal,0/3,GFTNADYAMH,GISWNSGSIGYADSNK,VGRGGGYFDY
no signal,0/3,GFPFDDYAMH,GISWNSGSIGYADSVK,MGMGGGYFDY
5.69,3/3,GLTFDDYAGH,GISWNSGSIGYADSVT,VGRGGGYFDY
3.58,1/3,GFTFDDYYMH,GISWNSISIGMADSVK,VGRGGGYFDY
2.74,1/3,GDTFDDYAMH,NISWNSGSIGYADSVK,VGRGGGYFQY
4.17,2/3,GFTFDDSAMH,GIRWNSGSIGYADSVK,VGRGGAYFDY
4.96,3/3,GCTFDDYAMH,GWSWNSASIGYADSVK,VGRGGGYFDY
4.27,1/3,GFTFWDEAMH,GISWNSGSIGYADSVK,VGRGGGYFDY
4.83,3/3,GFTFDNYAMH,GISWNSGSIGYADSIK,DGRGGGYFDY
no signal,0/3,GFTFDKYAMQ,GISWNSGSIGYADSIK,VGRGGGYFDY
4.66,1/3,GFTGDDYAMH,GISLNSGSIGYADSVK,VGRFGGYFDY
no signal,0/3,GFTNDDYAMA,FISWNSGSIGYADSVK,VGRGGGYFDY
no signal,0/3,GFTFDDYAMH,GISWRSGSIGYAPSVK,VHRGGGYFDY
no signal,0/3,GFTFFDYAMH,GISGNSGSIGYGDSVK,VGRGGGYFDY
no signal,0/3,GFTFDDYAQH,GISWNKGSIGYADSVK,VGRGQGYFDY
5.03,1/3,GFTFEDYAMH,GISWNSGFIGYADSVK,RGRGGGYFDY
4.26,1/3,GFTFDDYAMH,GISWNSGSIGFADSVK,VGRGGGYPDG
no signal,0/3,AFTFDDYAMH,GISWNEGSIGYADSVK,CGRGGGYFDY
no signal,0/3,IFTFDDYAMH,GISWNSGRHGYADSVK,VGRGGGYFDY
5.04,1/3,GFTFDDYAMH,GISWNFGSIGKADSVK,VDRGGGYFDY
no signal,0/3,GFTEDDYAMH,GISWNSGSIGYADSVK,VGHRGGYFDY
no signal,0/3,GFTFDDYAMH,LISWNSGSIGYADSVK,CGRGGGYFRY
no signal,0/3,GHTFDDYAMH,GKSWNSGSIGYADSVK,VQRGGGYFDY

The opening 12 entries, copied out:

CDR-H1,CDR-H2,CDR-H3,"log10 Kd (nM), mean",replicates with signal
GFAFDDYAMH,GISWNSGSIGYADSVK,RGRGGGYFDY,no signal,0/3
GFTFDDYAMH,GISWNSGSIQYADSVK,VGRGGTYPDY,no signal,0/3
GFTFDDYAMH,GISWNSGSIGCADSVT,VGRGMGYFDY,5.21,2/3
GFTFDDYAMH,GISWNSGSIGYADALK,VGRGGGYFDY,1.34,3/3
GFTFDNYAHH,GISWNSGSIGYADSVK,VGCGGGYFDY,no signal,0/3
GFTFDDYARH,GISWNSGSIGYADSVK,VKRGGGYFLY,4.71,1/3
GFTFDDYAMH,GISWNSGSIGGIDWVK,VGRGGGYFDY,no signal,0/3
EFTFDDYYMH,GISWNSGSIGYADSVK,VGRGGGYFDV,5.48,1/3
GFTFDDYGMH,MISWNSGSIGEADSVK,VGRGGGYFDY,no signal,0/3
GCTFDDYAMH,GISWNYGSIGYADSVK,VGRGGGLFDY,4.18,2/3
GFTFDPYAMH,GISWNSGEIGYADSVK,VGRGHGYFDY,no signal,0/3
GFTFDDYAMH,GISWSSGSHGYADSVK,VGRHGGYFDY,no signal,0/3